Test system: PaHPPD mutant M2
Experiment: E. coli pigment (OD405 nm) screening system: HPPD activity in the presence of triketone herbicides
Settings: 0-50 μM herbicide

Structure (SMILES)	resistance to the herbicide compared with wild-type WT (amount of melanin, OD405 nm)
CS(=O)(=O)c1ccc(C(=O)C2C(=O)CCCC2=O)c([N+](=O)[O-])c1 [mesotrione]	obvious resistance
CS(=O)(=O)c1ccc(C(=O)C2C(=O)CCCC2=O)c(Cl)c1 [sulcotrione]	obvious resistance
